From ChEMBL document CHEMBL5523770 (J Med Chem, 2024)
Blank lines part the entries; values can stand above or below the compound they belong to. Active and inactive are the calls of the source. The calls are words filed in the database; no cut-off is given here.

Sequences of proteins named here, by UniProt entry; tags and fusion partners are left off. A change or cut given only in a name is not applied to a line headed by its entry.
UniProt P37231: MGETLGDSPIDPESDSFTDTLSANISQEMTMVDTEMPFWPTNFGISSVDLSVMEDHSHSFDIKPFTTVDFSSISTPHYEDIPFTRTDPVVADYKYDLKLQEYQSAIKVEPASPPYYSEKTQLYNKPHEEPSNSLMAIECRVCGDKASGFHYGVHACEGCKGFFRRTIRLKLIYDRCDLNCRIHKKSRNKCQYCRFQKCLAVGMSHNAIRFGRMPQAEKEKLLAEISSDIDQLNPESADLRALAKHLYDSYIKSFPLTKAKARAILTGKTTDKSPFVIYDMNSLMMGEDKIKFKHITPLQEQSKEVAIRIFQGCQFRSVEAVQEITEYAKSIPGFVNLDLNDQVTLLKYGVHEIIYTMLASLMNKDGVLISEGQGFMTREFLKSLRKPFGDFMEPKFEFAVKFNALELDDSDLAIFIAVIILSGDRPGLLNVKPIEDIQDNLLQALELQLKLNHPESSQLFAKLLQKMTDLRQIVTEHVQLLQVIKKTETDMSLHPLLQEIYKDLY
UniProt P43354, whole entry: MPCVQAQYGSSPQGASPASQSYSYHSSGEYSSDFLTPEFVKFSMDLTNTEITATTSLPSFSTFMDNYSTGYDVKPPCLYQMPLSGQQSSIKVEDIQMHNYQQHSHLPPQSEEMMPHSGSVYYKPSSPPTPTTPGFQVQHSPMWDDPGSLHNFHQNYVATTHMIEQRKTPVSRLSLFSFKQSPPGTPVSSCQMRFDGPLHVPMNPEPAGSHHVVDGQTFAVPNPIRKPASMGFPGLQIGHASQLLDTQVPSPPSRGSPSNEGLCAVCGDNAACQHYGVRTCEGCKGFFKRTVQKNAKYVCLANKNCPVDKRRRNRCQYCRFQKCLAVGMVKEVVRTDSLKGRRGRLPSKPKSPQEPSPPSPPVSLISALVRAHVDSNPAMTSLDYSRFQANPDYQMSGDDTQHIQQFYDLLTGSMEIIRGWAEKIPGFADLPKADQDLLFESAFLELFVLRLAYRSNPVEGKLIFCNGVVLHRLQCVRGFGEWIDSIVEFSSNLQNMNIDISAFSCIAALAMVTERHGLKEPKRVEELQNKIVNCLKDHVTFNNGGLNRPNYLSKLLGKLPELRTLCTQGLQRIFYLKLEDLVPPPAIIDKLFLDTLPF

Columns and labels:
[1] = tested on: N27; assay: Induction of apoptosis in rat N27 cells at 1 uM measured after 24 hrs by brightfield/ fluorescence imaging; assay type: functional, cell-based
[2] = tested on: N27; assay: Induction of necrosis in rat N27 cells at 1 uM measured after 24 hrs by brightfield/ fluorescence imaging; assay type: functional, cell-based
[3] = tested on: N27; assay: Antiproliferative activity against rat N27 cells assessed as inhibition of cell proliferation at 1 uM incubated for 7 days in presence of 6-OHDA followed by replacement with fresh media containing compounds after 96 hrs; assay type: functional, cell-based; conditions: time 7.0 day
[4] = tested on: N27; assay: Antiproliferative activity against rat N27 cells assessed as inhibition of cell proliferation at 1 uM incubated for 7 days followed by replacement with fresh media containing compounds after 96 hrs; assay type: functional, cell-based; conditions: time 7.0 day
[5] = target: Peroxisome proliferator-activated receptor gamma (Homo sapiens) (UniProt P37231); assay: Inverse agonist activity at human PPARgamma transfected in HEK293T cells incubated for 16 hrs by firefly/renilla based Dual-Glo luciferase assay; assay type: cell-based; conditions: filed as inverse agonist
[6] = tested on: N27; assay: Sensitization of rat N27 cells to 6-hydroxydopamine assessed as inhibition of cell proliferation at 100 uM incubated for 7 days in presence of 6-OHDA followed by replacement with fresh media containing compounds after 96 hrs; assay type: functional, cell-based; conditions: time 7.0 day
[7] = tested on: N27; assay: Induction of necrosis in rat N27 cells at 100 uM measured after 24 hrs by brightfield/ fluorescence imaging; assay type: functional, cell-based
[8] = tested on: N27; assay: Induction of apoptosis in rat N27 cells at 100 uM measured after 24 hrs by brightfield/ fluorescence imaging; assay type: functional, cell-based
[9] = tested on: N27; assay: Induction of apoptosis in rat N27 cells at 100 uM incubated for 24 hrs in presence of 6-OHDA by brightfield/ fluorescence imaging; assay type: functional, cell-based
[10] = target: Nuclear receptor subfamily 4 group A member 2 (Homo sapiens, UniProt P43354); assay: Agonist activity at Gal4-fused human full length Nurr1 LBD transfected in HEK293T cells incubated for 16 hrs by firefly/renilla based Dual-Glo luciferase assay; assay type: cell-based; conditions: filed as agonist
[11] = tested on: N27; assay: Antiproliferative activity against rat N27 cells assessed as inhibition of cell proliferation at 6 uM incubated for 7 days followed by replacement with fresh media containing compounds after 96 hrs; assay type: functional, cell-based; conditions: time 7.0 day

Structure (SMILES): C#CCOc1cccc(-c2ccc(NC(=O)C3=C(C(=O)O)CCC3)c(F)c2)c1
Activity [1]: inactive
Activity [2]: inactive
Activity [3]: inactive
Activity [4]: inactive

Activity [5]: Active
Structure (SMILES): O=C(O)Cc1nc(-c2ccccc2)c(-c2ccccc2)o1

Structure (SMILES): O=C(O)CCc1nc(-c2ccccc2)c(-c2ccccc2)o1
Activity [6]: Active
Activity [7]: inactive
Activity [8]: inactive
Activity [9]: Active

Activity [10]: Active
Structure (SMILES): Cc1nc(-c2ccccc2)c(-c2ccccc2)o1

Activity [5]: Active
Structure (SMILES): CN(C)C(=O)CCc1nc(-c2ccccc2)c(-c2ccccc2)o1

Structure (SMILES): NCCc1cc(O)c(O)cc1O
Activity [11]: inactive

Activity [10]: Active
Structure (SMILES): Cc1cccc(C)c1-c1nc(CCC(=O)O)oc1-c1ccccc1
